Reference: doi:10.1101/2022.06.01.494340

Biological target: EGFR-mTFP (UniProt P00533)
Assay: ratiometric fluorescence imaging of labelled ligand on live cells

EGF-receptor occupancy at 20 ng/ml EGF-Alexa647: 20%
Substance: EGF-Alexa647 (ligand)
